Experiment [1] relates to Cdc7 (pS53MCM2 levels in HCT116 cells). As to the kind of experiment: Cdc7 Cell Pharmacodynamics Assay Method 1: pS53MCM2 levels in HCT116 cells, 6 hours. An excerpt:
This protocol describes a method to investigate the inhibition of Cdc7 activity of compounds by measuring pS53MCM2 levels in cells after treatment. […]

Chains of the proteins cited; added tags and fusions are not shown.
UniProt O00311, whole entry: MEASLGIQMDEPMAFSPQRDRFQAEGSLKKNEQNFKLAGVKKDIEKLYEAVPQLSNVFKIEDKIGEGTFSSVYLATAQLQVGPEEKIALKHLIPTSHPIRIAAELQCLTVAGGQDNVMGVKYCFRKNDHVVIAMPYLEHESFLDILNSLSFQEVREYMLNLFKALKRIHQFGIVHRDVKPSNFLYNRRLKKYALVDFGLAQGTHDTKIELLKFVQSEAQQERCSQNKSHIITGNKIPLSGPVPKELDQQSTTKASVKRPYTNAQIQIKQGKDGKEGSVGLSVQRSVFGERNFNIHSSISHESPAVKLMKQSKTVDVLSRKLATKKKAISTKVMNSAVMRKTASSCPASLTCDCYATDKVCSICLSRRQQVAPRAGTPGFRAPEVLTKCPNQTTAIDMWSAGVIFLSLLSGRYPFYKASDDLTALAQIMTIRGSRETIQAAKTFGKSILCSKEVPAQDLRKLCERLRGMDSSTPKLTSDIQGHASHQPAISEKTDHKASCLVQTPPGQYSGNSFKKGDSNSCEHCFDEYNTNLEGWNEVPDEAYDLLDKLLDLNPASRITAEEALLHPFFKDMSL
UniProt Q9UBU7, whole entry partner: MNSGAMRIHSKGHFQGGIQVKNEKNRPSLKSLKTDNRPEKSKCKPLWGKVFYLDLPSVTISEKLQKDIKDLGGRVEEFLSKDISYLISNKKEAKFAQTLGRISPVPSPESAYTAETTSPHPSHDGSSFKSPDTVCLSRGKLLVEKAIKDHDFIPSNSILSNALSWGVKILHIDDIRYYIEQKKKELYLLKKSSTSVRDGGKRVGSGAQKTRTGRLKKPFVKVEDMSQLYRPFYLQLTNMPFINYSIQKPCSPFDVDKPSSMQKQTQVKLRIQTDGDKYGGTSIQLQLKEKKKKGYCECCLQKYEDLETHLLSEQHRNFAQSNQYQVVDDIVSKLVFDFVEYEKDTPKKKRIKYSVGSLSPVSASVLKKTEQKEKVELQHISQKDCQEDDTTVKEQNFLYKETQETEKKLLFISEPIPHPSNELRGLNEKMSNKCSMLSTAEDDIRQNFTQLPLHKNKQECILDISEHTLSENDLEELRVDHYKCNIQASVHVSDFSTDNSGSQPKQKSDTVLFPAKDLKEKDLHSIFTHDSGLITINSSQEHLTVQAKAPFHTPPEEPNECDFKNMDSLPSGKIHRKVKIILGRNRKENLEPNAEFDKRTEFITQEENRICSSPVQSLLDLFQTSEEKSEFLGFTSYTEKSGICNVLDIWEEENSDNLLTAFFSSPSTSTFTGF

For experiment [2], the target named is Cdc7/ASK (Homo sapiens, UniProt O00311). As to the kind of experiment: Cdc7 Biochemical Assay Method 1: 384 well ELISA, whole protein substrate MCM2, antibody against Phospho MCM2 (S53). The settings on record: 2 μM ATP. As for the experimental part:
This protocol describes a method for assaying Cdc7/ASK for activity. The assay is a 384 well ELISA assay, utilising a whole protein substrate (MCM2) and an antibody against Phospho MCM2 (S53). This site is thought to be specific to Cdc7/ASK phosphorylation and the assay has been validated using knockout mutants. Reagents • TBS: 25 mM Tris pH 7.2, 150 mM NaCl. (Dilute 10× stock by 1:10). • Wash Buffer: TBS+0.05% Tween 20. (Add 100 mL 1 M Tris pH 7.2, 120 mL 5 M NaCl and 2 mL 100% Tween 20 per 4 L). • Kinase Reaction Buffer: 50 mM Tris-HCl pH 8.5, 10 mM MgCl2, 1 mM DTT. […] Stop the reaction by adding 20 μL Stop Solution to all wells and record Absorbance on a Pherastar plate reader. […] Z' factors were determined for each plate tested and were all above 0.5. […]
In general terms: ELISA stands for enzyme-linked immunosorbent assay.

Turning to `O=c1[nH]c(-c2ccncc2)nc(C2CCN(CC(F)(F)F)CC2)c1Cl`, the “Biomarker Method 1 (pEC50)” value in experiment [1] worked out at 5.88. For the same compound, in experiment [2], the “Biochemical Method 1 (pIC50)” value was 8.66.

Values taken from patent publication US10919896B2, “Preparation and uses of pyrimidinone derivatives” (Cancer Research Technology Limited, priority 2016, dated 2021).
